# Results: PMC10291551, “Characterization of a Potent and Orally Bioavailable Lys-Covalent Inhibitor of Apoptosis Protein (IAP) Antagonist” (Journal of Medicinal Chemistry, 2023)
# What was measured:
# [1] = tested on: MDA-MB-231 NucLight Red cells; experiment: cells; conditions: Homo sapiens, MDA-MB-231, 24 h, read-out: EC50 apoptosis (caspase-3/7 activity)
# [2] = aqueous buffer pH = 7.5, T = 25 °C; cited from earlier work
# [3] = tested on: MDA-MB-231 NucLight Red cells; experiment: 3D spheroid culture cell-killing assay (IncuCyte S3); format: cell-based; conditions: Homo sapiens, MDA-MB-231, 144 h, read-out: EC50 3D culture (red fluorescence intensity)
# [4] = design: method as in PMID 31550155; conditions: cited from earlier work
compound,measurement,setting,value
"CN[C@@H](C)C(=O)N[C@H](C(=O)N1CCC[C@H]1C(=O)N[C@@H]1CCc2c(OS(=O)(=O)F)cccc21)C1CCCCC1 [142D6, (R)-1-((S)-1-((S)-2-cyclohexyl-2-((S)-2-(methylamino)propanamido)acetyl)pyrrolidine-2-carboxamido)-2,3-dihydro-1H-inden-4-yl sulfurofluoridate]",EC50,[1],61 ± 12 nM
same,stability in aqueous buffer (long-lived),[2],several hours
same,EC50,[3],94.2 ± 6.2 nM
same,plasma stability t1/2,[4],> 2 h
